From patent US20240041813A1, “VERY-LONG-CHAIN POLYUNSATURATED FATTY ACIDS, ELOVANOID HYDROXYLATED DERIVATIVES, AND METHODS OF USE” (priority 2020, published 2024)

Test system: ACE2
Assay: Cytokine screening for stimulation of Ace2 in HCEC (dd-PCR)
Assay type: cell-based, human
Conditions: cytokine at 1, 10, and 100 ng/mL, 6 hours

IL2
Ace2 expression (dd-PCR): no significant increase
